Values of other authors as cited in US10946075B1 (priority 2014, dated 2021).
Some compounds may have been tested in ways that are not shown here.

What was measured:
[1] = US EPA
rats = settings: rat, po

Ammonium Perchlorate
LOEL (Lowest Observed Effect Level) [1]: 0.02 mg/kg/day
NOEL (No Observed Effects Level) [1]: 0.007 mg/kg/day

ferric hexacyanoferrate (II)
LD50 (rats): 1000 mg/kg
